Data taken from patent US20230287118A1 (published 2023).

Target: T1, human CD20 (human, UniProt P11836 1-297)
T1 sequence (looked up): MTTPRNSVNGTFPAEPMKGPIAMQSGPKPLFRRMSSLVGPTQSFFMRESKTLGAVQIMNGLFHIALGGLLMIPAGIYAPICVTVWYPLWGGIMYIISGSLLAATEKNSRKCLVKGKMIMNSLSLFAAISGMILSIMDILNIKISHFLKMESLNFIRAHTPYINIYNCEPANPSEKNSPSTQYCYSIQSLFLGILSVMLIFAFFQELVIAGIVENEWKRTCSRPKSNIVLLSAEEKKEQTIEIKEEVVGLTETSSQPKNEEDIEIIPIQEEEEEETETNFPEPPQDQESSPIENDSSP
Experiment: cell-based or functional assay

B1: Obinutuzumab (Gazyva) (antibody, V domains shown)
VH: QVQLVQSGAEVKKPGSSVKVSCKASGYAFSYSWINWVRQAPGQGLEWMGRIFPGDGDTDYNGKFKGRVTITADKSTSTAYMELSSLRSEDTAVYYCARNVFDGYWLVYWGQGTLVTVSS
VL: DIVMTQTPLSLPVTPGEPASISCRSSKSLLHSNGITYLYWYLQKPGQSPQLLIYQMSNLVSGVPDRFSGSGSGTDFTLKISRVEAEDVGVYYCAQNLELPYTFGGGTKVEIK
  EC50 24 h of B cell depletion in normal human whole blood: 79.2 pM
